Amino acid sequences for entries named in this document (tags omitted).
UniProt Q15910, whole entry Y641F: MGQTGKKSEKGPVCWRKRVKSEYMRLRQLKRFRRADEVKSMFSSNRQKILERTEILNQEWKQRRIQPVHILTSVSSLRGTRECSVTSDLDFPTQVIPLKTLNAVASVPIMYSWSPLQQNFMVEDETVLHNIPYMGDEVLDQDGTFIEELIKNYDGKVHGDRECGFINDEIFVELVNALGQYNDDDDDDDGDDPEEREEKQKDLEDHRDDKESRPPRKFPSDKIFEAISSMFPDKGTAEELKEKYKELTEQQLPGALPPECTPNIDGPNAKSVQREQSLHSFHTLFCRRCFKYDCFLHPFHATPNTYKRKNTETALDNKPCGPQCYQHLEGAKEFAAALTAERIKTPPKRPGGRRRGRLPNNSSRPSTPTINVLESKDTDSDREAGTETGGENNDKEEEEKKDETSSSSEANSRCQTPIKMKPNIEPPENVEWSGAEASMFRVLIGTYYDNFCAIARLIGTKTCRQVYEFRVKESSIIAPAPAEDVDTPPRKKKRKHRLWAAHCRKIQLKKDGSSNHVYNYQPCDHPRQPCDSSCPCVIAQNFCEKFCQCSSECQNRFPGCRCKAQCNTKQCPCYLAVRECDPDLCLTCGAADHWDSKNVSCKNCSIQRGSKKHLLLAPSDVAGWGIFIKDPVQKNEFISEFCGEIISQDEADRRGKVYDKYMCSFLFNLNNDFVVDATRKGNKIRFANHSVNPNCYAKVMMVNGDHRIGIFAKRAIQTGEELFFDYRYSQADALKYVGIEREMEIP
UniProt Q15910, whole entry: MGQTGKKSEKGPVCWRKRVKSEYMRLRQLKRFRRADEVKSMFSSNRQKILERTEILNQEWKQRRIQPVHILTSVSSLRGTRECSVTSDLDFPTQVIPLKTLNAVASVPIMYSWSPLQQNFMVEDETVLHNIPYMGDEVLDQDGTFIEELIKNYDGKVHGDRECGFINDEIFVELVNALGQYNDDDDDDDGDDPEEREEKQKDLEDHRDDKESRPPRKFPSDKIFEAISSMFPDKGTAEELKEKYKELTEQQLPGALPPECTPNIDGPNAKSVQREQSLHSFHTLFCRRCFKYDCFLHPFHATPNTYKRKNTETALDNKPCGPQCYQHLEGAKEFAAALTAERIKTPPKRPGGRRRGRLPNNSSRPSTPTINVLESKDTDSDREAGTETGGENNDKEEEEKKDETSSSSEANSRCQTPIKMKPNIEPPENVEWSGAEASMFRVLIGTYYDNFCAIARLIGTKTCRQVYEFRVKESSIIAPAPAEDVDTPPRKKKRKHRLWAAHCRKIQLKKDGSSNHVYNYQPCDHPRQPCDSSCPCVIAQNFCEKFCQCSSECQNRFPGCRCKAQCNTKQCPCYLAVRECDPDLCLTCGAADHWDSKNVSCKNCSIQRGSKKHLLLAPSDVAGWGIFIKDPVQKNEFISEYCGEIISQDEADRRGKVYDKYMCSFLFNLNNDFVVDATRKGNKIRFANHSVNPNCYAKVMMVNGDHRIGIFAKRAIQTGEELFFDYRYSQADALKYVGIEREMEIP

According to US10968215B2 (SHANGHAI HAIHE PHARMACEUTICAL CO., LTD., priority 2016, dated 2021):

Tests used:
[1] = biological target: PRC2 complex (EZH2 Y641F/EED/SUZ12/RbAp48/AEBP2) (Homo sapiens (Human), UniProt Q15910, Y641F); experiment: Activity of a compound to PRC2 complex (EZH2 Y641F), HTRF
[2] = biological target: PRC2 complex (EZH2/EED/SUZ12/RbAp48/AEBP2) (Homo sapiens (Human), UniProt Q15910); experiment: Activity of a compound to PRC2 complex (EZH2 wild type), ELISA; assay type: biochemical
Description: 2. Determination of the Activity of a Compound to PRC2 Complex (EZH2 Wild Type):
Detection Method: Enzyme-Linked Immunosorbent Assay (ELISA)
MATERIALS: The PRC2 complex (EZH2/EED/SUZ12/RbAp48/AEBP2) histone methyltransferase was purchased from BPS; the substrate Biotin H3 (21-44) me0 was produced by AnaSpec; SAM was purchased from Sigma, which is GL Biochem product; methyl donor SAM was purchased from Sigma-aldrich; H3K27me3 antibody was purchased from BPS.
Experimental method: avdin of a final concentration of 100 nM was used to coat 96-well plate at 10 μL/well, placed in a wet box and shaken overnight, and then 100 μL 3% BSA per well was added and blocked for 1 h at room temperature. PRC2 complex (EZH2/EED/SUZ12/RbAp48/AEBP2), H3 (21-44) me0 substrate, methyl donor SAM and compound were added into each well of the blocked 96-well plate. The total reaction system was 100 μL, placed in a wet box and allowed to react for 1 h on shaker at room temperature. The plate was washed with TBS-T [20 mM Tris-HCl (pH 7.2-7.4, room temperature), 150 mM NaCl, 0.1% (v/v) Tween-20] for 3 times, blocked with 3% BSA for 10 min, and anti-H3K27me3 antibody was added and incubated for 1 h in a wet box on shaker at room temperature. […] The plate was read by a plate reader at 490 nm and IC50 of the compound was calculated using SoftMax Pro 5.4.1 software.

[3] = read-out: IC50 (EZH2_Y641F), class symbols

Structure (SMILES) | IC50 ([1]; read-out: IC50 (EZH2_Y641F), numeric values) [nM] | IC50 ([2]; numeric values) [nM] | IC50 [1, 3] [nM] | IC50 ([2]; class symbols) [nM]
COc1cc(C)[nH]c(=O)c1CNC(=O)c1cc2c(-c3ccn[nH]3)ccn2c([C@H](C)N2CCN(CC(F)(F)F)CC2)c1C (single isomer, unassigned) [Compound 156, (S)—N-((4-methoxy-6-methyl-2-oxo-1,2-dihydropyridin-3-yl)methyl)-6-methyl-1-(1H-pyrazol-5-yl)-5-(1-(4-(2,2,2-trifluoroethyl)piperazin-1-yl)ethyl)indolizine-7-carboxamide or (R)—N-((4-methoxy-6-methyl-2-oxo-1,2-dihydropyridin-3-yl)methyl)-6-methyl-1-(1H-pyrazol-5-yl)-5-(1-(4-(2,2,2-trifluoroethyl)piperazin-1-yl)ethyl)indolizine-7-carboxamide] | 3.1 | 3.81 | – | –
COc1cc(C)[nH]c(=O)c1CNC(=O)c1cc2c(-c3ccn[nH]3)ccn2c(C(C)N2CCN(CC(F)(F)F)CC2)c1C (centres unmarked) [Compound 154, N-((4-methoxy-6-methyl-2-oxo-1,2-dihydropyridin-3-yl)methyl)-6-methyl-1-(1H-pyrazol-5-yl)-5-(1-(4-(2,2,2-trifluoroethyl)piperazin-1-yl)ethyl)indolizine-7-carboxamide] | – | – | < 100 | –
Cc1cc(C)c(CNC(=O)c2cc3cccn3c(C(C)N3CCOCC3)c2C)c(=O)[nH]1 (centres unmarked) [Example 26, N-((4,6-dimethyl-2-oxo-1,2-dihydropyridin-3-yl)methyl)-6-methyl-5-(1-morpholinylethyl)indolizine-7-carboxamide] | – | – | < 100 | < 100

Read-outs that look alike come from different tables or passages of the source.
